For assay [1], the target named is GS21015 (Homo sapiens, UniProt Q86XP0, P10T). The assay can be described thus: Inhibitory action on phospholipase A2 activity of GS21015 (release of [14C]arachidonic acid from 1-palmitoyl-2-arachidonyl-phosphatidylcholine).
Assay [2] has as its target cPLA2α (Homo sapiens, UniProt P47712). The assay can be described thus: Inhibitory action on phospholipase A2 activity of cPLA2α (same method as for GS21015).

Sequences of proteins named here, by UniProt entry; tags and fusion partners are left off. A change or cut given only in a name is not applied to a line headed by its entry.
UniProt Q86XP0: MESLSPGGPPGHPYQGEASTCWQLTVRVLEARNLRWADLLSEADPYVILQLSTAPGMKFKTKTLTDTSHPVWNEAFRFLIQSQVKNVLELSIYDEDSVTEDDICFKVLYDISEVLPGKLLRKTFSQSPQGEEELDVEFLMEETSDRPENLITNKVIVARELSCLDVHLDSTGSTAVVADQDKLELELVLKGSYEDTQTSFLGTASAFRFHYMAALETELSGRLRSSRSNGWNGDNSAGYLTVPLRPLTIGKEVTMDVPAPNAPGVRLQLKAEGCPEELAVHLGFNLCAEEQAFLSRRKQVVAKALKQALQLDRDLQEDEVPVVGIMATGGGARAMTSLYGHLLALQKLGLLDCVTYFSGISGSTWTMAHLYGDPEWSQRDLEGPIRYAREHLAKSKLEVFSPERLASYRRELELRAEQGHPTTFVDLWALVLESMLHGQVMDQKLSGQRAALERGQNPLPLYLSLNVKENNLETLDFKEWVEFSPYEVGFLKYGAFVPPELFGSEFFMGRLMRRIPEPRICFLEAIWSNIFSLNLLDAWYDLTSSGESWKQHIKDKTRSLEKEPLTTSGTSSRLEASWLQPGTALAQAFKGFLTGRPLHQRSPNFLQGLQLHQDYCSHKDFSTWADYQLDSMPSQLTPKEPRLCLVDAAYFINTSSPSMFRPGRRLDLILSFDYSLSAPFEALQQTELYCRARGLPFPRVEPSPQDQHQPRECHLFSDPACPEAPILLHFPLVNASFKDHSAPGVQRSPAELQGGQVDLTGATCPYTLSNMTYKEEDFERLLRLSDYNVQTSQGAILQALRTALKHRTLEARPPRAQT
UniProt P47712: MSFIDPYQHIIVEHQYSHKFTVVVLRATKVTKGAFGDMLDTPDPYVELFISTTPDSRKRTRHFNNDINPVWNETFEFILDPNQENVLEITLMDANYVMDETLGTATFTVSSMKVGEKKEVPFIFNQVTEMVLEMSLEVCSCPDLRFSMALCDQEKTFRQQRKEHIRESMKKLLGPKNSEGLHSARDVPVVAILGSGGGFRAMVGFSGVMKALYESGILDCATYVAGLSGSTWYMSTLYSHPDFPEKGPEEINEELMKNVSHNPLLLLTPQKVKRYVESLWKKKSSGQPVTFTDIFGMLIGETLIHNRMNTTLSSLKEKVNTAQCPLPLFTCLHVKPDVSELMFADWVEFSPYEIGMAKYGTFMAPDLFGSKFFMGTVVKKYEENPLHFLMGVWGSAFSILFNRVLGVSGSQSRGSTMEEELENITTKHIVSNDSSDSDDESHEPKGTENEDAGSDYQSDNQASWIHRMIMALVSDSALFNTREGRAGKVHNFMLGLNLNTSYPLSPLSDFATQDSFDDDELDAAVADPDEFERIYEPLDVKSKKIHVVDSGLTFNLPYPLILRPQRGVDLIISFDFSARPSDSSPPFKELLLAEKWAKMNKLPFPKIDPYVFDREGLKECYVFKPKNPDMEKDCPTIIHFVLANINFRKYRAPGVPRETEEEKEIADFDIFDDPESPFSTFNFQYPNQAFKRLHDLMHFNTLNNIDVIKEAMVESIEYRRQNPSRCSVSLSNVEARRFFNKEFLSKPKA

A word on the IC50: it is the concentration needed to halve the response being measured. A low value points to higher potency.

On to arachdinyl trifluoromethyl ketone, for which the half-maximal inhibitory concentration (IC50) was > 45 µM in assay [1] and < 10 µM in assay [2].
